Measurements reported in paper PMC6706711 (Iranian Journal of Pharmaceutical Research : IJPR, 2019).

What was measured:
[1] = Individual pharmacokinetic parameters by renal function subgroup, post hoc empirical Bayesian approach; conditions: for CL / Vd / ke: SD
[2] = 30 ≤ GFR < 60 mL/min·1.73m2, N=20, mean ± SD
[3] = 60 ≤ GFR < 90 mL/min·1.73m2, N=24, mean ± SD
[4] = GFR ≥ 90 mL/min·1.73m2, N=111, mean ± SD
[5] = moderate renal insufficiency (30 ≤ GFR < 60) compared with normal renal function (GFR ≥ 90 mL/min·1.73m2)

CN[C@H](CC(C)C)C(=O)N[C@H]1C(=O)N[C@@H](CC(N)=O)C(=O)N[C@H]2C(=O)N[C@H]3C(=O)N[C@H](C(=O)N[C@H](C(=O)O)c4cc(O)cc(O)c4-c4cc3ccc4O)[C@H](O)c3ccc(c(Cl)c3)Oc3cc2cc(c3O[C@@H]2O[C@H](CO)[C@@H](O)[C@H](O)[C@H]2O[C@H]2C[C@](C)(N)[C@H](O)[C@H](C)O2)Oc2ccc(cc2Cl)[C@H]1O [vancomycin, Vancomycin]
CL [1, 2]: 0.086±0.043 ^a ^b L·kg-1·h-1
Vd [1, 2]: 0.66 ± 0.29 L/kg
ke [1, 2]: 0.137±0.062 ^a ^b h-1
CL [1, 3]: 0.131 ± 0.091 L/kg/h
Vd [1, 3]: 0.68 ± 0.43 L/kg
ke [1, 3]: 0.195±0.072 ^a h-1
CL [1, 4]: 0.142 ± 0.059 L/kg/h
Vd [1, 4]: 0.65 ± 0.27 L/kg
ke [1, 4]: 0.238 ± 0.090 h⁻¹
clearance decrease [1, 5]: 39.4%
elimination rate constant decrease [1, 5]: 42.4%
half life increase [1, 5]: 1.74 fold
θ (L·h-1) (typical value for Weight=9 kg and CL GFR=121.5 mL/min·1.73m2), bootstrap median (1,000 bootstrap-resampled data sets): 0.98 L/h
half-life estimate (typical population value, median weight 9 kg, median GFR 121.5 mL/min·1.73 m2): 3.4 h

Marks after values point to notes of the source that are not given here.
